Test results published in ChEMBL document CHEMBL1130431, “Synthesis and biochemical evaluation of N-(4-phenylthiazol-2-yl)benzenesulfonamides as high-affinity inhibitors of kynurenine 3-hydroxylase” (J Med Chem, 1997).

Tests used:
Conditions in all cases: Gerbillinae
[1] = test system: Kynurenine 3-monooxygenase (Meriones unguiculatus); test: Compound was evaluated for ex vivo inhibition of Kynurenine 3-hydroxylase activity in brain from Gerbils after injecting perorally
[2] = test system: Kynurenine 3-monooxygenase (Meriones unguiculatus); test: Compound was evaluated for ex vivo inhibition of Kynurenine 3-hydroxylase activity in Liver from Gerbils after injecting perorally
[3] = test system: Kynurenine 3-monooxygenase (Meriones unguiculatus); test: Compound was evaluated for ex vivo inhibition of Kynurenine 3-hydroxylase activity in Kidney from Gerbils after injecting perorally

ED50 [1]: 3 µmol/kg
ED50 [2]: 0.7 µmol/kg
ED50 [3]: 0.9 µmol/kg
SMILES: Nc1ccc(S(=O)(=O)Nc2nc(-c3cc(C(F)(F)F)ccc3F)cs2)cc1
